These results are taken from patent publication US8008291B2 (Mimetica Pty Ltd, priority 2008, dated 2011).

Sequences of proteins named here, by UniProt entry; tags and fusion partners are left off. A change or cut given only in a name is not applied to a line headed by its entry.
UniProt P41968: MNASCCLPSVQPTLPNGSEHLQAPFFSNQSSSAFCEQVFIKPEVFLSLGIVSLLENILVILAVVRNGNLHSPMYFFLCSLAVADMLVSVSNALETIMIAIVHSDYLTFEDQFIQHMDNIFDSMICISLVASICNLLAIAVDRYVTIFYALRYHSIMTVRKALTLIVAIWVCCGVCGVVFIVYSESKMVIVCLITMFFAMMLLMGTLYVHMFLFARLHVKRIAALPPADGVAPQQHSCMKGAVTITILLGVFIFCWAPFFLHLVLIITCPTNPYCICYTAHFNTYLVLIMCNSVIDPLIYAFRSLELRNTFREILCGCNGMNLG
UniProt P33032: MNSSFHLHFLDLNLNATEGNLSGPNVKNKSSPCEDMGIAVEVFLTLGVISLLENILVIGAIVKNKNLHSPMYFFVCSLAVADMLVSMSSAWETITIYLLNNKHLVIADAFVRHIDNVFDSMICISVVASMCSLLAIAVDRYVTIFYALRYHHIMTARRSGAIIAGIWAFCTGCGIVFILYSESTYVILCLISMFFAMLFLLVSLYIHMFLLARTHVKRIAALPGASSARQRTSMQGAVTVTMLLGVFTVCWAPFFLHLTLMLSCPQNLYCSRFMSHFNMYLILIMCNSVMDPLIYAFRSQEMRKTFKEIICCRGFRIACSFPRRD
UniProt P32245, whole entry: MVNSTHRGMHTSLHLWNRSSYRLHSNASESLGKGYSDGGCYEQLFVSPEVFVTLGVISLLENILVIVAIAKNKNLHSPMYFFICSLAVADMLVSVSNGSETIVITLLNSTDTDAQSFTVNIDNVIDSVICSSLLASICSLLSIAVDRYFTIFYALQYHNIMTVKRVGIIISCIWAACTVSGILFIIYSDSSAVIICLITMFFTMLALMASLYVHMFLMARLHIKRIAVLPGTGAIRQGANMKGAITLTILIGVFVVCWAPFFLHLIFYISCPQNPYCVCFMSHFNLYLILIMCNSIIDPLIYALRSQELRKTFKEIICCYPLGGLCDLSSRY
UniProt Q01726: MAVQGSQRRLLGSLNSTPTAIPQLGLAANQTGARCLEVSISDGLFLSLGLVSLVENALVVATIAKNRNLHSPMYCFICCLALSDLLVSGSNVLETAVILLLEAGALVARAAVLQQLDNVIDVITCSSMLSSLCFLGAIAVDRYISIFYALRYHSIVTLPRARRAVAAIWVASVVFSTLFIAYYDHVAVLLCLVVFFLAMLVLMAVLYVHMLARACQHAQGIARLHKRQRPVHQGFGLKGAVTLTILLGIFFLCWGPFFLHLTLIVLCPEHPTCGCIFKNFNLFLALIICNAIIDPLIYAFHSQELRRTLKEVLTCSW

Test [1] has as its target hMC3R (Homo sapiens, UniProt P41968). As to the kind of experiment: Human MC3R radioligand binding assay. The settings on record: hMCR binding selectivity, [125I] NDP-MSH, membranes. How it is done: (§1) • Na^125I (0.5 mCi, 17.4 Ci/mg) was added to 50 μL sodium phosphate (50 mM, pH7.4) in an eppendorf tube precoated with IODOGEN. After incubation for 10 mins the phosphate buffer containing the iodine was added to NDP-MSH (10 ul at 1 mg/mL) in a separate eppendorf tube. This was incubated for a further 10 mins. The iodinated NDP-MSH was purified by HPLC on a Zorbax SB 300 column using solvent A: 0.05% TFA and solvent B: 90% acetonitrile 0.045% TFA with a linear gradient, 0-67% B over 60 mins. The ^125I NDP-MSH eluted at 52 min after the unlabeled starting material (48 min) and was counted and stored in the freezer. […] Reagents: • Incubation buffer: 25 mM HEPES-KOH (pH 7.0), 1.5 mM CaCl2, 1 mM MgSO4, 0.1M NaCl, 1 mM 1,10-phenanthroline, and 1 Complete™ protease inhibitor tablet/100 mL (Roche, catalog number 1873580) • Perkin Elmer frozen hMC5 membranes: catalog number RBXMC5M400UA, 0.4 mL/vial; 400 microassays/vial 0.78 mg/mL protein concentration Vials of frozen membranes were thawed rapidly immediately before use, diluted with binding buffer and vortexed. Resuspended membranes were kept on ice until they were added to the wells of the plate. Binding Protocol for 400 microassays per vial: • Assays were performed in 96 well polypropylene plates. […] This was incubated for 1 hr at 37° C. […] Non-specific binding just under 5%. […]

Test [2] deals with T1, human MC5R (whole cells) (Homo sapiens, UniProt P33032).
T1 construct: host or cells: HEK 293
Description: MC5R radioligand binding, human MC5R whole cells. As to the method:
• Na^125I (0.5 mCi, 17.4 Ci/mg) was added to 50 μL sodium phosphate (50 mM, pH7.4) in an eppendorf tube precoated with IODOGEN. After incubation for 10 mins the phosphate buffer containing the iodine was added to NDP-MSH (10 ul at 1 mg/mL) in a separate eppendorf tube. This was incubated for a further 10 mins. The iodinated NDP-MSH was purified by HPLC on a Zorbax SB 300 column using solvent A: 0.05% TFA and solvent B: 90% acetonitrile 0.045% TFA with a linear gradient, 0-67% B over 60 mins. […] Resuspended membranes were kept on ice until they were added to the wells of the plate. Binding Protocol for 400 microassays per vial: • Assays were performed in 96 well polypropylene plates. […] This was incubated for 1 hr at 37° C. Non-specific binding was determined with 3 mM NDP-MSH. Plates were filtered using a Tomtec cell harvester with GF/A filters (Wallac) (presoaked in 0.6% polyethylenimine) and washed three times with 1.0 mL ice-cold wash buffer (the above incubation buffer without 1,10-phenanthroline and Complete™ protease inhibitor tablet). […] Prepared filters were counted in cassettes in a Microbeta Trilux (Wallac) for 1 min. […] Data analysis was performed using GraphPad Prism 4, employing competition binding with a single site model and a fixed Hill coefficient.

For test [3], the target named is T2, human MC5R (Homo sapiens, UniProt P33032).
T2 construct: host or cells: HEK 293
Description: cAMP stimulation assay, agonism, HEK 293 cells expressing human MC5R. The test is classed as cell-based.

Test [4] deals with T2, human MC5R. As to the kind of experiment: cAMP assay, antagonism of alpha-MSH, HEK 293 cells expressing human MC5R. The format is cell-based. The settings on record: antagonism of 10^−6 M alpha-MSH. (In general: Cyclic AMP is a second messenger, typically raised through Gs and lowered through Gi signalling.)
For test [5], the target named is T3, human MC5R (hMC5R) (Homo sapiens, UniProt P33032).
T3 construct: purchased Perkin Elmer RBXMC5M400UA
As to the kind of experiment: Human MC5R radioligand binding assay (membranes, [125I] NDP-MSH displacement). The settings on record: tested as trifluoroacetate or hydrochloride salts, or free bases. How it is done:
Assessments of compound binding to human MC5R (hMC5R) ) by displacement of an ^125I-labeled NDP-MSH receptor ligand peptide were performed essentially as described in the data sheets produced by Perkin Elmer to accompany their frozen hMC5R membranes (Perkin Elmer catalog number RBXMC5M400UA).
[^125I] NDP-MSH: radiolabeled in house and purified by HPLC:
(§2) • Na^125I (0.5 mCi, 17.4 Ci/mg) was added to 50 μL sodium phosphate (50 mM, pH7.4) in an eppendorf tube precoated with IODOGEN. After incubation for 10 mins the phosphate buffer containing the iodine was added to NDP-MSH (10 ul at 1 mg/mL) in a separate eppendorf tube. This was incubated for a further 10 mins. The iodinated NDP-MSH was purified by HPLC on a Zorbax SB 300 column using solvent A: 0.05% TFA and solvent B: 90% acetonitrile 0.045% TFA with a linear gradient, 0-67% B over 60 mins. […] Resuspended membranes were kept on ice until they were added to the wells of the plate. Binding Protocol for 400 microassays per vial: • Assays were performed in 96 well polypropylene plates. […] This was incubated for 1 hr at 37° C.

The target of test [6] is hMC4R (Homo sapiens, UniProt P32245). Description: Human MC4R radioligand binding assay. The settings on record: hMCR binding selectivity, [125I] NDP-MSH, membranes. As to the method: as §2
Radioligand binding assays were carried out using commercial or in-house prepared hMC1R, hMC3R and hMC4R membranes and [125I]
The homogenisation and ice incubation was repeated three times. The mixture was then centrifuged at 1260×g for 5 mins. […] This was centrifuged at 30,000×g for 90 mins at 4° C.

Test [7] addresses hMC1R (Homo sapiens, UniProt Q01726). As to the kind of experiment: Human MC1R radioligand binding assay. The settings on record: hMCR binding selectivity, [125I] NDP-MSH, membranes. As to the method:
as §1

SMILES strings stand for the structures. Bounds are passed on as bounds.

For orientation: IC50 means the concentration at which inhibition is half-maximal. For orientation: EC50 means the concentration that produces a half-maximal response. A low value points to an effect from little substance. With `N=C(N)NCCC[C@@H]1N[C@H](CNC(=O)c2ccc3ccccc3c2)CCN(CC(c2ccccc2)c2ccccc2)C1=O` [Compound 105, N-(((3S,5S)-1-(2,2-diphenylethyl)-3-(3-guanidinopropyl)-2-oxo-1,4-diazepan-5-yl)methyl)-2-naphthamide], the IC50 in test [1] was determined as 1.75 µM; in test [2], 0.219 µM; in test [4], 0.4 µM. The EC50 in test [3] was greater than 10 µM.

As to `O=C(NC[C@@H]1CCN(CC(c2ccccc2)c2ccccc2)C(=O)[C@H](CCCN2CCCCC2)N1)c1ccc2ccccc2c1` [Compound 64, N-(((3S,5S)-1-(2,2-diphenylethyl)-2-oxo-3-(3-(piperidin-1-yl)propyl)-1,4-diazepan-5-yl)methyl)-2-naphthamide], the IC50 in test [5] is less than 0.1 µM; in test [1], 2.24 µM; in test [2] it was 0.127 µM; in test [6] it was 3.49 µM; in test [4], 0.07 µM; in test [7], 9.22 µM. This compound also showed an EC50 in test [3] greater than 10 µM.
